Experimental data reported in paper PMC11299522 (Journal of medicinal chemistry, 2023).

Amino acid sequences for entries named in this document (tags omitted).
UniProt P35372, whole entry: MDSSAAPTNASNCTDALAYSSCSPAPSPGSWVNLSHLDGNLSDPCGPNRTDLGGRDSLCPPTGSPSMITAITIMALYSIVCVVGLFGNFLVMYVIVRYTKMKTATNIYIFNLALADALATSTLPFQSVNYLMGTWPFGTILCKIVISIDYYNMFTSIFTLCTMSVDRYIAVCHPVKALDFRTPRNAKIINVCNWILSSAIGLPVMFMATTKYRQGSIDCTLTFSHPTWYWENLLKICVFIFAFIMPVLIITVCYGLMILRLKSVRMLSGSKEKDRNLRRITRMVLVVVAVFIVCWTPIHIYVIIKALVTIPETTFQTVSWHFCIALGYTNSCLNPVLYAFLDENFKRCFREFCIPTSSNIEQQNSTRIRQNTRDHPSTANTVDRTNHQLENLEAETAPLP

Molecular target: human μOR (hμOR) (Homo sapiens, UniProt P35372)
Assay: Pink Flamindo cAMP assay, reversal of DAMGO-induced cAMP inhibition
Type: cell-based
Conditions: read-out: IC50 in reversing the inhibition of cAMP by DAMGO; coapplied with DAMGO 250 nM, hμOR-HEK293 cells, AUC analysis, n = 3

## C=C(C)[C@@H]1CCC(C)=C[C@H]1c1c(O)cc(CCCCC)cc1O [JGC1, (1′R,2′R)-5′-Methyl-4-pentyl-2′-(prop-1-en-2-yl)-1′,2′,3′,4′-tetrahydro-[1,1′-biphenyl]-2,6-diol]
  IC50: 311 nM
